The assay concerns the target ectodomain of BACE (aa 1-454) fused to a myc-his tag, secreted from HEK293/BACEect. cells (Homo sapiens (Human), UniProt P56817). In words: biochemical.

One may read the IC50 as the midpoint of a concentration-inhibition curve.

Turning to `CC(C)N1C(=O)C2(N=C1N)c1ccccc1CC21CCc2ccccc2CC1` (stereo not shown) [Compound 410], half-maximal inhibition (IC50) required 566 nM.

For the origin of these results see patent publication US8633212B2, “Inhibitors of beta-secretase” (Vitae Pharmaceuticals, Inc., priority 2009, dated 2014).
